The results in this text go back to EP1903056A2, “HLA-A1, -A2 -A3, -A24, -B7, and -B44 tumor associated antigen peptides and compositions” (priority 2002, dated 2004).

One test has as its target B*4402 (Homo sapiens, UniProt P01889, A223V/A65T/A93T/A95T/D201E/D98Y/E176V/E187L/E204Q/E69K/G107R/H137Y/K202T/L105A/L119I/N104T/N87E/Q56L/Q94N/R106L/R155S/R180D/S101N/S121R/S35A/S48T/T118I/V36M/W191S/Y140D/Y91S). Put plainly: B44 supertype peptide binding, B*4402. Conditions: MAGE3-derived B44 peptides, binding to B*4402; read-out: B* 4402.
Another test deals with B*1801 (Homo sapiens, UniProt P01889, A329T/A93T/A95T/C349S/D201E/D54G/D98Y/E176V/E187T/E204Q/E69T/K202T/Q94N/R155S/R180L/S121R/V306I/Y140S/Y195H/Y33H/Y91S). Put plainly: B44 supertype peptide binding, B*1801. Conditions: MAGE3-derived B44 peptides, binding to B*1801.
Test [1] has as its system B44 supertype (B*1801, B*4001, B*4002, B*4402, B*4403, B*4501). Put plainly: B44 supertype cross-binding (degeneracy, number of alleles bound). Details: species or system human. The note with it: number of the six B44 supertype alleles bound.
The next test has as its target B*4002 (B61) (Homo sapiens, UniProt P01889, A65T/A93T/A95T/D138N/D201E/D98Y/E176V/E204Q/E69K/K202T/N87E/Q56L/Q94N/R180L/S48T/Y33H/Y91S). Put plainly: B44 supertype peptide binding, B*4002. Conditions: MAGE3-derived B44 peptides, binding to B*4002; read-out: B* 4002.
For another test, the target named is B*4001(B60) (Homo sapiens, UniProt P01889, A65T/A93T/A95T/D138N/D98Y/E176V/E69K/N87E/Q56L/Q94N/R180L/S121R/S35A/S48T/T167S/V36M/W171L/Y33H/Y91S). The test is described as follows: B44 supertype peptide binding, B*4001. Conditions: MAGE3-derived B44 peptides, binding to B*4001; read-out: B* 4001.
The target of the next test is B*4403 (Homo sapiens, UniProt P01889, A223V/A65T/A93T/A95T/D201E/D98Y/E176V/E187L/E204Q/E69K/G107R/H137Y/K202T/L105A/L119I/N104T/N87E/Q56L/Q94N/R106L/R155S/R180L/S101N/S121R/S35A/S48T/T118I/V36M/W191S/Y140D/Y91S). The test is described as follows: B44 supertype peptide binding, B*4403. Conditions: MAGE3-derived B44 peptides, binding to B*4403; read-out: B* 4403.
The target in the next test is B*4501 (Homo sapiens, UniProt P01889, A329T/A65T/A93T/A95T/C349S/D138N/D201E/D98Y/E176V/E187L/E204Q/E69K/H137Y/K202T/L119W/N87E/Q56L/Q94N/R155S/R180D/S121R/S35A/S48T/V127L/V306I/V36M/W191S/Y140L/Y33H/Y91S). The test is described as follows: B44 supertype peptide binding, B*4501. Conditions: MAGE3-derived B44 peptides, binding to B*4501; read-out: B* 4501.

A value given as a limit tells only on which side of the number the result lay.

Consider `CC(C)C[C@H](NC(=O)[C@@H](NC(=O)[C@H](CO)NC(=O)[C@H](CO)NC(=O)[C@H](CO)NC(=O)[C@H](CO)NC(=O)[C@H](C)NC(=O)[C@H](C)NC(=O)[C@H](CCC(=O)O)NC(=O)[C@@H](N)CCC(N)=O)[C@@H](C)O)C(=O)O` [compound 719], for which the IC50 amounted to 56 nM on B*4402, 144 nM at B*1801, 47 nM at B*4002 (B61) and 49 nM on B*4001(B60). For the same compound, the Degeneracy in test [1] is given as 6.

Turning to `CC(C)C[C@H](NC(=O)[C@H](C)NC(=O)[C@H](C)NC(=O)[C@H](CCC(N)=O)NC(=O)[C@H](Cc1ccccc1)NC(=O)[C@H](CCC(=O)O)NC(=O)[C@H](CO)NC(=O)[C@H](CCC(=O)O)NC(=O)[C@@H](N)CC(C)C)C(=O)O` [compound 720], the IC50 at B*4403 was found to be 1 nM; at B*4402, 95 nM; at B*1801, 5.4 nM; at B*4002 (B61), 16 nM; on B*4001(B60), 19 nM. This compound had a Degeneracy in test [1] of 6.

As to `CC(C)C[C@H](NC(=O)[C@H](CC(C)C)NC(=O)[C@H](CC(C)C)NC(=O)[C@H](Cc1ccccc1)NC(=O)[C@H](Cc1c[nH]cn1)NC(=O)[C@@H](NC(=O)[C@H](CC(C)C)NC(=O)[C@H](CCC(=O)O)NC(=O)[C@H](C)N)C(C)C)C(=O)O` [compound 721], the IC50 at B*4403 amounted to 0.94 nM; at B*4402, 18 nM; at B*1801 it was 160 nM; at B*4002 (B61), 3.1 nM; at B*4001(B60), 25 nM; at B*4501, 141 nM. This compound also came in with a Degeneracy in test [1] of 6.

Take `CC[C@H](C)[C@H](NC(=O)[C@H](Cc1ccc(O)cc1)NC(=O)[C@H](CC(C)C)NC(=O)[C@H](Cc1c[nH]cn1)NC(=O)CNC(=O)[C@@H](NC(=O)[C@@H]1CCCN1C(=O)[C@H](CC(=O)O)NC(=O)[C@@H](NC(=O)[C@H](CCC(=O)O)NC(=O)[C@@H](N)CCSC)C(C)C)[C@@H](C)CC)C(=O)O` [compound 723]: the IC50 on B*4403 amounted to 0.91 nM; at B*4402 it was 64 nM; on B*4002 (B61), 16 nM; on B*4001(B60) it was 34 nM; on B*4501, 95 nM. This compound also displayed a Degeneracy in test [1] of 6.

Regarding `CSCC[C@H](NC(=O)[C@H](CCC(=O)O)NC(=O)[C@H](C)N)C(=O)N[C@@H](CC(C)C)C(=O)NCC(=O)N[C@@H](CO)C(=O)N[C@H](C(=O)N[C@H](C(=O)NCC(=O)O)C(C)C)C(C)C` [compound 726], at B*4403, the IC50 worked out at 1.6 nM. Also, the Degeneracy in test [1] worked out at 5.

As for `CC(C)C[C@H](NC(=O)[C@H](CC(=O)O)NC(=O)[C@@H]1CCCN1C(=O)[C@H](Cc1ccccc1)NC(=O)[C@@H](NC(=O)[C@H](CO)NC(=O)[C@@H]1CCCN1C(=O)CNC(=O)[C@H](CCC(=O)O)NC(=O)[C@@H](N)CCC(=O)O)[C@@H](C)O)C(=O)O` [compound 730], the IC50 was determined as 198 nM on B*4402, 591 nM at B*4002 (B61) and 655 nM on B*4001(B60). Moreover, the Degeneracy in test [1] came out at 4.

As to `CC[C@H](C)[C@H](N)C(=O)N[C@@H](CCC(=O)O)C(=O)N[C@@H](CC(C)C)C(=O)N[C@@H](CCSC)C(=O)N[C@@H](CCC(=O)O)C(=O)N[C@H](C(=O)N[C@@H](CC(=O)O)C(=O)N1CCC[C@H]1C(=O)N[C@H](C(=O)O)[C@@H](C)CC)C(C)C` [compound 731], the IC50 on B*4402 was 4040 nM; at B*4002 (B61), 252 nM; at B*4001(B60) it was 296 nM; at B*4501, 11900 nM. Moreover, the Degeneracy in test [1] is 4.

Consider `CC[C@H](C)[C@H](NC(=O)[C@H](CCCCN)NC(=O)[C@H](CCC(=O)O)NC(=O)[C@@H](N)CCC(=O)O)C(=O)N[C@@H](Cc1c[nH]c2ccccc12)C(=O)N[C@@H](CCC(=O)O)C(=O)N[C@@H](CCC(=O)O)C(=O)N[C@@H](CC(C)C)C(=O)N[C@@H](CO)C(=O)N[C@H](C(=O)N[C@@H](CC(C)C)C(=O)O)C(C)C` [compound 733], for which the IC50 on B*4402 turned out to be 1420 nM; at B*4001(B60) it was 25 nM; on B*4501, 218 nM. In test [1], the Degeneracy stood at 4.

The compound `CC(C)C[C@H](NC(=O)[C@H](CCC(=O)O)NC(=O)[C@@H](N)CCC(=O)O)C(=O)N[C@@H](CO)C(=O)N[C@H](C(=O)N[C@@H](CC(C)C)C(=O)N[C@@H](CCC(=O)O)C(=O)N[C@H](C(=O)N[C@@H](Cc1ccccc1)C(=O)O)C(C)C)C(C)C` [compound 734] returned a Degeneracy in test [1] of 4. The IC50 on B*4002 (B61) came out at 3310 nM.

For the compound `CC(C)C[C@H](NC(=O)[C@H](CCC(=O)O)NC(=O)[C@H](CCC(=O)O)NC(=O)[C@@H](N)Cc1c[nH]c2ccccc12)C(=O)N[C@@H](CO)C(=O)N[C@H](C(=O)N[C@@H](CC(C)C)C(=O)N[C@@H](CCC(=O)O)C(=O)N[C@H](C(=O)O)C(C)C)C(C)C` [compound 737], the IC50 was over 10000 nM on B*4402, 158 nM on B*4002 (B61), 2480 nM on B*4001(B60) and 538 nM on B*4501. This compound yielded a Degeneracy in test [1] of 3.

With `C[C@H](NC(=O)[C@H](C)NC(=O)[C@H](CCC(=O)O)NC(=O)[C@@H](N)CCC(N)=O)C(=O)N[C@@H](CO)C(=O)N[C@@H](CO)C(=O)N[C@@H](CO)C(=O)N[C@@H](CO)C(=O)N[C@H](C(=O)O)[C@@H](C)O` [compound 740], the IC50 was 3820 nM on B*4402, 1420 nM at B*1801, 1480 nM at B*4002 (B61) and over 10000 nM on B*4001(B60). In test [1], this compound displayed a Degeneracy of 2.

Consider `CC[C@H](C)[C@H](NC(=O)[C@H](CCCCN)NC(=O)[C@H](CCC(=O)O)NC(=O)[C@H](CCC(=O)O)NC(=O)[C@@H]1CCCN1C(=O)[C@H](C)NC(=O)[C@H](CS)NC(=O)[C@H](CC(=O)O)NC(=O)CNC(=O)[C@H](CCC(=O)O)NC(=O)[C@@H](N)CCCNC(=N)N)C(=O)O` [compound 741], for which the IC50 at B*4402 is 4040 nM; at B*1801, 973 nM; on B*4501, 146 nM. Moreover, in test [1], the Degeneracy is reported as 2.

Regarding `CC[C@H](C)[C@H](NC(=O)[C@H](CO)NC(=O)[C@H](CC(=O)O)NC(=O)[C@H](CCC(=O)O)NC(=O)[C@H](CCCNC(=N)N)NC(=O)CNC(=O)[C@H](CCC(=O)O)NC(=O)[C@H](Cc1ccccc1)NC(=O)[C@@H](NC(=O)[C@H](CCC(=O)O)NC(=O)[C@@H](N)CC(C)C)C(C)C)C(=O)O` [compound 742], the IC50 at B*4402 was over 10000 nM; at B*1801 it was 4740 nM; at B*4002 (B61), 512 nM; at B*4501 it was over 10000 nM. In addition, the Degeneracy in test [1] is 2.

Turning to `CC[C@H](C)[C@H](NC(=O)[C@H](CO)NC(=O)[C@H](CC(=O)O)NC(=O)[C@H](CCC(=O)O)NC(=O)[C@H](CCCNC(=N)N)NC(=O)CNC(=O)[C@H](CCC(=O)O)NC(=O)[C@@H](N)Cc1ccccc1)C(=O)O` [compound 743], the figures for the IC50 at B*4402, on B*1801 and on B*4001(B60) were 14200 nM, 5760 nM and 718 nM, respectively. This compound returned a Degeneracy in test [1] of 2.

As to `C[C@@H](O)[C@H](NC(=O)[C@H](CO)NC(=O)[C@@H]1CCCN1C(=O)CNC(=O)[C@H](CCC(=O)O)NC(=O)[C@H](CCC(=O)O)NC(=O)[C@H](CCC(=O)O)NC(=O)[C@@H](N)CCC(N)=O)C(=O)N[C@@H](Cc1ccccc1)C(=O)O` [compound 744], the IC50 on B*4403 is 529 nM; on B*4402 it was 324 nM; at B*1801 it was 841 nM; on B*4002 (B61), 16100 nM; on B*4001(B60), over 10000 nM. In test [1], the Degeneracy is given as 1.

With `CC[C@H](C)[C@H](N)C(=O)N[C@@H](CCC(=O)O)C(=O)N[C@@H](CC(C)C)C(=O)N[C@@H](CCSC)C(=O)N[C@@H](CCC(=O)O)C(=O)N[C@H](C(=O)N[C@@H](CC(=O)O)C(=O)N1CCC[C@H]1C(=O)N[C@H](C(=O)NCC(=O)O)[C@@H](C)CC)C(C)C` [compound 745], the IC50 at B*4403 was over 10000 nM; on B*1801, 506 nM; at B*4001(B60), 6590 nM. The compound further showed a Degeneracy in test [1] of 1.
